Assay results published in patent publication US20250312338A1, “TREATMENT OF NEUROLOGICAL DISORDERS” (Praxis Precision Medicines, Inc., priority 2022, published 2025).

Sequences of proteins named here, by UniProt entry; tags and fusion partners are left off.
UniProt Q9UQD0, whole entry: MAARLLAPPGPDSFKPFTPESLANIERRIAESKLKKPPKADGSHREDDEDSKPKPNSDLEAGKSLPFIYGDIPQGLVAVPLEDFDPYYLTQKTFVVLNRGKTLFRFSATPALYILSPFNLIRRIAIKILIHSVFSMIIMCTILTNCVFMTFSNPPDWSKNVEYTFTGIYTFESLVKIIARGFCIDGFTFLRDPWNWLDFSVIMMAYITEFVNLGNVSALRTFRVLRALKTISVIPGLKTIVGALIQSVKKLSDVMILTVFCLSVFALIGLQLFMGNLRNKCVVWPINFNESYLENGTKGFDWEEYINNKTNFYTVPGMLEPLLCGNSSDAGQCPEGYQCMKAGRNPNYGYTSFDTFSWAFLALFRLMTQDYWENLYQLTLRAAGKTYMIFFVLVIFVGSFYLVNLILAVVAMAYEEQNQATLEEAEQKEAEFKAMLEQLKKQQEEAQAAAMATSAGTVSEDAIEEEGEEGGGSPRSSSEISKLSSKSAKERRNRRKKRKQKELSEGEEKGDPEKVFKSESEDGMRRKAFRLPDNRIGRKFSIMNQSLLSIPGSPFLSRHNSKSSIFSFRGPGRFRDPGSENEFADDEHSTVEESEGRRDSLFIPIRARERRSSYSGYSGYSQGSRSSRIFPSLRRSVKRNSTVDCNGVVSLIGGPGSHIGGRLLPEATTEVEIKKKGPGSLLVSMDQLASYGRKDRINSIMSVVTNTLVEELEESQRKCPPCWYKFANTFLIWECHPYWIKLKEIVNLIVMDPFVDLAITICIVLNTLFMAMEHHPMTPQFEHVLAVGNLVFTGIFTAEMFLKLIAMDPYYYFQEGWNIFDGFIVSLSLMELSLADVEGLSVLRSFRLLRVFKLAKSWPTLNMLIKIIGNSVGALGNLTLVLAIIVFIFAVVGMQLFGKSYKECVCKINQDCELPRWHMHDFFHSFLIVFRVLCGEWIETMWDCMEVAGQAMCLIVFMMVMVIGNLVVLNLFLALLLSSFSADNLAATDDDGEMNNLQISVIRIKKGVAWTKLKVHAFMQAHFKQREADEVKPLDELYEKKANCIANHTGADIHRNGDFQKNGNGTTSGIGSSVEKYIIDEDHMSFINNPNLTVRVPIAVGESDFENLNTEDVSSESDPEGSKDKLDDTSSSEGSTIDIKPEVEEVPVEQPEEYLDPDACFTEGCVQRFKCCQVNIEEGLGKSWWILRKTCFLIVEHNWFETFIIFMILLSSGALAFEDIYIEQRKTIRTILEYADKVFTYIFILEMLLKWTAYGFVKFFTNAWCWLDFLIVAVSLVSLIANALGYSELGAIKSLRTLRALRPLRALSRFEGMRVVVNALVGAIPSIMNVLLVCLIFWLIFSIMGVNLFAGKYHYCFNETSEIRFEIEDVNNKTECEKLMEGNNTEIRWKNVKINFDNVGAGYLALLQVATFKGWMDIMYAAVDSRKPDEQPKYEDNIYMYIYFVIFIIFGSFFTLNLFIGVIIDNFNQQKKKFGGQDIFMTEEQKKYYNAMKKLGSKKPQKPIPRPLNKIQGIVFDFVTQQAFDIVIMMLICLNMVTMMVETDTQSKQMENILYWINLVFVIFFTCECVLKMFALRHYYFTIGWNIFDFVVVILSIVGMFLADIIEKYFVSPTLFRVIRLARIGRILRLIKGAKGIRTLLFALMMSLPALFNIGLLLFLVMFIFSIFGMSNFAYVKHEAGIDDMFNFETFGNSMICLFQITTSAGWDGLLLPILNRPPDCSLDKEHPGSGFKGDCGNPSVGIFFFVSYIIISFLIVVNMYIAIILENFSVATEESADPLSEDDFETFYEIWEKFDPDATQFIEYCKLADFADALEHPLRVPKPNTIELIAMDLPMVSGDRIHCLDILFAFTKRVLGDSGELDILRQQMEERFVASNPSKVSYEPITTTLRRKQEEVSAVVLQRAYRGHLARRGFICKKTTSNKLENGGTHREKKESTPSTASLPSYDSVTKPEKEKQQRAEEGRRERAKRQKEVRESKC

Key:
[1] = tested on: CA1 pyramidal neurons; test: Intrinsic excitability assay (evoked action potentials), brain slice whole-cell current clamp; assay type: cell-based, mouse
Description: Three hundred micrometer coronal hippocampal slices were cut on a vibratome (VT1200; Leica) for whole-cell patch-clamp experiments. Slices were incubated for a minimum of 1 hour in the incubation solution at room temperature before patching.
Brain slices were transferred to a submerged recording chamber on an upright microscope (Slicescope Pro 1000; Scientifica) and were perfused (2 ml/min) with the extracellular artificial cerebral spinal fluid (aCSF) recording solution at 32° C. […]
Studies were performed using whole-cell current clamp recording mode. […] Once baseline action potential firing was determined in the presence of the extracellular aCSF recording solution (baseline), Compound 1 (300 nM or 3 μM) was washed onto the slice for 5 minutes before repeating the action potential generating protocol (FIG. 1B).
Data were analyzed using Axograph X software. Individual action potentials were identified and counted using a +50 mV amplitude threshold relative to pre-event baseline. […] Action potential amplitudes were determined relative to the pre-event baseline at the +200 pA current injection step for each cell. […] For statistical comparisons between groups, the total number of action potentials fired per cell was calculated. […]

[2] = target: T1, human NaV1.6 (Homo sapiens, UniProt Q9UQD0); test: Late (persistent) INa block, ATX-II activated, PatchXpress patch clamp; assay type: cell-based; conditions: hNaV1.6, all assay conditions
T1 construct: HEK-293 cell lines stably expressing either human NaV1.6 (NP_055006); expressed in transfected cells

[3] = target: T1, human NaV1.6; test: Peak INa use dependent block (UDB-10 Hz), PatchXpress patch clamp; assay type: cell-based; conditions: hNaV1.6

Compound: NC(=O)N1c2ccccc2C=Cc2ccccc21 [Carbamazepine]
- AP amplitude ([1]; 0.3 μmol/L Compound 1, 45 μmol/L CBZ, +200 pA current injection): more pronounced reduction
- intrinsic excitability as number of evoked APs ([1]; at peak INa VDB IC50 equivalents: 0.3 μmol/L Compound 1, 45 μmol/L CBZ): more robust reduction
- preference for persistent INa relative to peak INa (in words) [2]: no preference for persistent INa
- Ratio to Peak INa (TB) (TB / UDB-10 Hz) [3]: 1.6
